Measured values taken from patent publication US6649645B1 (Pharmacia Corporation, priority 1998, dated 2003).
Where two headings read alike, the source gives them in different places.

What was measured:
NFSA tumor [1] = system: NFSA tumor
NFSA tumor [2] = conditions: COX-2 inhibitor plus radiation, TCD50 assay

`NS(=O)(=O)c1ccc(-n2nc(C(F)(F)F)cc2-c2ccc(Cl)cc2)cc1` was tested, and the “mice died of unknown causes” value (NFSA tumor [1]; COX-2 inhibitor only group) was “Two of eight”, the “mice died of unknown causes” value (NFSA tumor [1]; COX-2 inhibitor plus 40 Gy group) was “Two of eight” and the “mice died of unknown causes” value (NFSA tumor [2]) was “Five of 60”.
